Ab-95 light chain CDR variants: yeast mating affinities

Data: MIT Lincoln Laboratory AlphaSeq set, Engelhart et al. 2022, doi:10.1038/s41597-022-01779-4, as distributed in FLAb.

All variants were tested on one target, the spike HR2 peptide PDVDLGDISGINAS (SARS-CoV-2).

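The parent was found by panning a naive human phage display library on the peptide. AAYL52 was designed without a model: most single CDR substitutions and a random sample of double and triple ones. The scFvs were displayed on barcoded MATa yeast, the peptide on MATalpha yeast. Mating (16 h, 30 °C) was followed by selection of diploids and sequencing of their barcodes. Scores were corrected for input abundance and mapped to Kd with protein pairs of known affinity run in the same pool. There are three technical replicates.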

Parent scFv Ab-95: VH joined to VL by three GGGGS repeats. Changes lie in the light chain CDRs alone.
VH: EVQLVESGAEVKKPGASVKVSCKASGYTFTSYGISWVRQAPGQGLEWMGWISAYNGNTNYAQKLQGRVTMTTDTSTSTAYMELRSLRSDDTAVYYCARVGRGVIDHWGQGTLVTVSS
VL: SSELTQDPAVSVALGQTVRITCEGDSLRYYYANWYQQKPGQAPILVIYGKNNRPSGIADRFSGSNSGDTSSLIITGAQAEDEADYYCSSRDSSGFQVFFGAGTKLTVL

Substitutions are numbered in sequence along the VL above, starting at 1 (not Kabat).
Scale: log10 of Kd in nM, estimated from mating counts; low values are strong binders.
An entry "nd" has no value in the source: the pair was not observed among the diploids in that replicate. This suggests poor binding but is not conclusive.
Background: pairings of library AAYL52 with three empty control strains gave a value in 28% of cases (median 3.91, 5th percentile 2.90). Values in that range, when seen in few replicates, are hard to tell from nonspecific mating. For each scFv, signals with the empty controls are counted beside the result, with their mean in brackets.

changes,log10 Kd (nM) by replicate,control signals
A32G S55Y S89H,nd / nd / nd,0 of 9
G24Y K50P N51M,3.93 / nd / nd,2 of 9 (4.53)
L27P S55N V97M,nd / nd / nd,2 of 9 (3.95)
N33Q G94T F98M,nd / nd / nd,0 of 9
N52M S88H F95L,3.19 / 4.02 / 3.74,0 of 9
R28P R53S S88Q,3.76 / nd / nd,5 of 9 (3.67)
R28P N51G S93H,1.96 / 2.32 / 1.79,3 of 9 (3.60)
G94I F95D,nd / 4.00 / 3.61,3 of 9 (3.34)
S26H A32W S92A,nd / 4.86 / 4.10,2 of 9 (4.30)
Y30N Y31C N33I,nd / nd / 3.51,3 of 9 (2.69)
L27Y N51S S92L,5.36 / nd / nd,3 of 9 (3.82)
Y31I K50F S89E,4.00 / 4.20 / 4.04,2 of 9 (3.29)
G24D K50P F95D,4.51 / nd / 3.75,7 of 9 (4.23)
G24C R90W F95C,4.44 / nd / 4.25,2 of 9 (3.71)
Y30G N52I R53V,2.05 / 1.95 / 1.42,5 of 9 (4.02)
N33I R90M Q96T,nd / nd / nd,2 of 9 (4.44)
Y31G S55I S89A,1.33 / 1.40 / 1.00,3 of 9 (3.88)
D25V Y30D Y31W,3.19 / 2.37 / 2.54,0 of 9
A32R N51I V97H,nd / nd / 4.78,0 of 9
Y30C N52L F95K,2.32 / 2.86 / 2.38,1 of 9 (2.86)
Y31P S92G S93P,1.73 / 1.64 / 1.30,2 of 9 (4.49)
Y29R S88E R90E,3.15 / 3.19 / 2.20,4 of 9 (3.66)
S26D R28A Y30S,1.22 / 1.16 / 0.69,1 of 9 (4.21)
L27T A32G S55C,5.34 / 5.73 / nd,3 of 9 (4.35)
D25A A32L F95M,4.34 / 3.18 / 3.35,3 of 9 (3.48)
R28G G49F N52P,4.43 / 3.86 / nd,3 of 9 (3.94)
L27S N51C S89Q,nd / nd / nd,2 of 9 (3.79)
E23G G24T Y30S,2.05 / 1.89 / 1.72,1 of 9 (2.61)
D25K N33P Q96K,4.65 / 4.04 / 5.03,5 of 9 (4.19)
Y30N R53Q Q96S,0.96 / 0.76 / 0.47,2 of 9 (4.62)
G24D N51M P54V,nd / 4.00 / nd,1 of 9 (2.72)

Picked from the list: the 3 lowest averages where every replicate gave a value.

changes,log10 Kd (nM) by replicate,control signals
Y30N R53Q Q96S,0.96 / 0.76 / 0.47,2 of 9 (4.62)
S26D R28A Y30S,1.22 / 1.16 / 0.69,1 of 9 (4.21)
Y31G S55I S89A,1.33 / 1.40 / 1.00,3 of 9 (3.88)